We go through one substance from US6911478B2, “Nitric oxide-releasing amidine- and enamine-derived diazeniumdiolates, compositions and uses thereof and method of making same” (The United States of America as represented by the …, priority 1997, dated 2005).

The series in a line: production of NO and N2O by amidine/nitric oxide adducts, headspace chemiluminescence (NO) and gas chromatography (N2O). The class given is physicochemical. The note with it: pH 7.4 buffer, gas chromatography. An excerpt:
Nitrous oxide (N2O), being the end product of HNO dimerization and dehydration, provided a measure of HNO production via the equation (Nagasawa et al., J. Med. Chem. 33: 3122-3124 (1990)): [drawing 12]
This example describes the measurement of the production of NO and N2O by amidine/nitric oxide adducts.

Take “tetrahydrozoline bis(nitric oxide)adduct [Example 6]”: the “Yield N2O” value is on record as 0.4 moles per mole cmpd.
